KinaseGlo FLuc – blocks Kinase-Glo luciferase, a counter-screen artifact. Q27757. Kinase-Glo luciferase, ATP luminescence, 8 min. Potency, µM (highest dose often 38.3 µM), without a hit: at the highest dose activity change, negative = inhibition, usual class: inhibitors. 200,000 compounds, 0.28% hits; note: potency is the fitted concentration of half-maximal effect; % is set by controls: 0 for no effect and ±100 for the full control effect; nearly all actives have a fitted effect of over 60% in size
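Light output from Kinase-Glo luciferase with luciferin and 10 uM ATP in 50 mM imidazole pH 7.2, KCl, MgCl2, Tween 20, BSA; compound pin-delivered, 8-min ambient incubation, then luminescence read.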
RXFP1 antag – RXFP1 (human) relaxin receptor antagonism. 350,000 compounds, 0.59% hits. Q9HBX9. HEK293-RXFP1, relaxin-stimulated cAMP HTRF, 30 min; active compounds read low. AID 1259400. activity change, negative = inhibition, % at 57.5 µM;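 active = activity change of -60% or lower, but not beyond a set lower limit; inconclusive = change between -60% and -40%, or beyond the set limit; inactive = change above -40%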; note: % is set by controls: 0 for no effect and ±100 for the full control effect
RXFP1 agonist – agonists of human relaxin receptor RXFP1; HEK293T-RXFP1 cAMP TR-FRET, 30 min; response scale: percent of porcine relaxin response, buffer zero; Potency, µM (highest dose often 57.5 µM), for the others: at the top dose activation, actives largely listed as activators; 370,000 compounds, 0.3% hits; AID 2676; note: potency is the fitted concentration of half-maximal effect; % is set by controls: 0 for no effect and ±100 for the full control effect; nearly all actives have a fitted effect of over 60% in size
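Agonist response is measured as cAMP accumulation in an RXFP1-transfected HEK293T line under PDE4 inhibition. Values are scaled between buffer-only and 29 nM porcine relaxin, and EC50s come from standard Hill equation fits.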
GALK inhibitor – blocks human galactokinase activity | 270,000 compounds, 0.007% hits | AID 1868 | Potency, µM (highest dose often 57.5 µM), without a hit: top-dose activity change, negative = inhibition, actives largely listed as inhibitors | Purified GALK, Kinase-Glo residual ATP luminescence | P51570; note: potency is the fitted concentration of half-maximal effect; % is set by controls: 0 for no effect and ±100 for the full control effect
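Compounds were pin-transferred into ATP buffer (35 uM final), then GALK plus galactose (5 nM, 100 uM final) was added. After 1 h at room temperature, Kinase-Glo Plus was added and luminescence read after 10 min.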
PKM2 act – increases activity of human pyruvate kinase M2 | purified PKM2, Kinase-Glo ATP luminescence, activation; response scale: 0% is enzyme alone, no compound | 260,000 compounds, 0.34% hits | Potency, µM (top dose mostly 57.5 µM), inactives show at the top dose activation, most hits filed as activators | P14618; note: potency is the fitted concentration of half-maximal effect; % is set by controls: 0 for no effect and ±100 for the full control effect; nearly all actives have a fitted effect of over 55% in size
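ATP formation by purified human PK-M2, quantified via coupled luciferase luminescence after 1 h at room temperature with 0.1 mM ADP and 0.5 mM PEP final.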
miR-21 reporter – raises the signal of a miR-21 reporter; Potency, µM (doses to about 38.3 µM), inactives show top-dose reporter change, positive = more light; HeLa miR-21 FLuc reporter, luciferase, 48 h; AID 2288; 340,000 tested, under 10 active; active = well fitted rising curve with a large enough effect; inconclusive = small, poorly fitted or top-dose-only effect; inactive = no such curve, though single readings can be large or run the other way;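 further: % of control where 0% means no effect; miR-21 action dims this reporter so a rising signal means less miR-21 action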
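Compounds were titrated across several concentrations (up to approximately 40 uM) and incubated 48 hours with HeLa miR-21-FLuc reporter cells (miR-21 target sequence downstream of FLuc, endogenous miR-21). Readout was firefly luciferase luminescence after lytic detection reagent.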
Starred values were filed as active, the others as inactive; ? = inconclusive; . = not tested or not shown; [ ] = remark or other dose. Sampled rows, rich in hits. Any-hit rate of the full collection: about 0.92%. Unless noted, calls come from the whole dose curve; as a rule, active = well fitted curve in the direction sought with a large enough effect; inconclusive = small, poorly fitted or top-dose-only effect, or another doubt; inactive = no such curve, though single readings can be large; an effect the other way counts as inactive or inconclusive.

Key to letters – A = KinaseGlo FLuc; B = RXFP1 antag; C = RXFP1 agonist; D = GALK inhibitor; E = PKM2 act; F = miR-21 reporter
[1] COC(=O)c1ccccc1S(=O)(=O)N1CCc2nc(-c3ccc(OC)cc3C)c3c(c2C1)CO[C@@H](c1ccccc1)C3
  A = -8%[7.66 µM] | B = . | C = . | D = . | E = -3%[11.5 µM] | F = .
[2] O=S(=O)(c1ccc(OCC(O)CNCc2ccco2)c(Cl)c1)N1CCOCC1 (stereo not drawn)
  A = -5% | B = 6 | C = 1% | D = 1% | E = 4µM* | F = -10%
[3] O=[N+]([O-])c1cccc(COc2ncnc3cc([N+](=O)[O-])ccc23)c1
  A = . | B = 36 | C = 28µM* | D = . | E = ? | F = -11%
[4] CCOC(=O)C(CCC(C)=O)C(=O)c1ccccc1 (stereo not drawn)
  A = . | B = . | C = 2% | D = . | E = 5% | F = -3%
[5] Cc1ccc(CNC(=O)c2ccc3c(c2)NC(=O)C(N2CCOCC2)S3)cc1 (stereo not drawn)
  A = -1% | B = -62* | C = 0% | D = -1% | E = -18% | F = -4%
[6] O=C(COc1ccccc1/C=C1\SC(=S)NC1=O)Nc1ccc(F)cc1
  A = . | B = -70* | C = . | D = . | E = . | F = .
[7] CCCN(CC(=O)Nc1ccccc1OC)C(=O)CSC(=S)N1CCCC1
  A = . | B = 3 | C = 1% | D = . | E = . | F = .
[8] COC(=O)c1sc(NC(=S)NNC(=O)c2c(Br)c(C)nn2C)c(C(=O)OC)c1C
  A = . | B = 31 | C = 25µM* | D = -1% | E = -4% | F = 0%
[9] Cc1ccccc1CNC(=O)Cc1csc2ccccc12
  A = . | B = -4 | C = 1% | D = . | E = . | F = -38%
[10] Cc1cc2c3c(cccc3n1)C(=O)c1ccccc1-2
  A = -2% | B = . | C = . | D = . | E = . | F = .
[11] CC1=CC2C(C(O)CC3(C)C2CC(C)C32OCOC23COCO3)C2(C)C/C(=C\O)C(=O)C=C12 (stereo not drawn)
  A = . | B = -76* | C = . | D = . | E = . | F = .
[12] O=C(Nc1nnc(SCc2ccc(F)cc2)s1)C1Cc2ccccc2CN1C(=O)c1ccco1 (stereo not drawn)
  A = -1% | B = -64* | C = 0% | D = . | E = 22% | F = -12%
[13] O=S(=O)(Nc1ccc(N2CCOCC2)nn1)c1ccccc1
  A = . | B = -13 | C = 0% | D = 4% | E = 14µM* | F = -1%
[14] Oc1cccc(/C=N/N(Cc2ccccc2)c2ccccc2)c1
  A = 3% | B = -32 | C = -1% | D = 1% | E = -2% | F = 7%
[15] Oc1ccc(/C=N/N(Cc2ccccc2)c2ccccc2)c(O)c1O
  A = -1% | B = -92* | C = -1% | D = 3% | E = 15% | F = 1%
[16] COc1ccc(CC(=O)NNC(=O)c2ccccn2)cc1
  A = . | B = -61* | C = 2% | D = -4% | E = 0% | F = -7%
[17] COc1ccc(OC)c(NC(=O)c2nc3ccccc3s2)c1
  A = 1% | B = 16 | C = 0% | D = 5% | E = 2% | F = -13%
[18] COc1ccc(CC(=O)NNC(=O)c2cnccn2)cc1
  A = 1% | B = 8 | C = 1% | D = 1% | E = 4% | F = -1%
[19] COc1ccc(NC(=O)c2ccccn2)cc1
  A = 13µM* | B = -8 | C = -3% | D = 8% | E = -66% | F = 23%
[20] COc1ccc(NC(=O)c2nc3ccccc3s2)cc1
  A = 8.9µM* | B = 9 | C = 4% | D = . | E = -40% | F = 0%
[21] COc1cc(NS(=O)(=O)c2cc3c(cc2C)NC(=O)CO3)cc(OC)c1
  A = . | B = -2 | C = 0% | D = . | E = 7.1µM* | F = 6%
[22] Cc1cc2c(cc1S(=O)(=O)Nc1cc(C(F)(F)F)cc(C(F)(F)F)c1)OCC(=O)N2
  A = . | B = -4 | C = -2% | D = . | E = . | F = -2%
[23] CCc1ccc(N2CCn3c2nc2c3c(=O)n(Cc3cccc(C)c3)c(=O)n2C)cc1
  A = . | B = -6 | C = 0% | D = . | E = . | F = -18%
[24] CCOC(=O)C1=C(N)OC2=C(C(=O)CC(C)(C)C2)C1c1ccc(C)s1 (stereo not drawn)
  A = 2% | B = -62* | C = -4% | D = 8% | E = . | F = -17%
[25] CCCCCC(=O)/C=C/[C@@H]1[C@@H](C/C=C\CCCC(=O)O)[C@@H](O)C[C@H]1O
  A = 0% | B = . | C = . | D = . | E = . | F = .
[26] CC(C)(C)c1cc(C(=O)CCN2CCOCC2)cc(C(C)(C)C)c1O
  A = . | B = -83* | C = 0% | D = 1% | E = . | F = 10%
[27] Cn1c(NCCCO)nc2c1c(=O)n(Cc1cccc(F)c1)c(=O)n2C
  A = . | B = -7 | C = 7% | D = . | E = . | F = -7%
[28] CCn1cc(C(=O)NC(C)C23CC4CC(CC(C4)C2)C3)cn1 (stereo not drawn)
  A = -2% | B = -5 | C = 1% | D = 0% | E = -3% | F = -10%

3 compounds out of the list above, arranged by the value under miR-21 reporter, smallest number first:
item | canonical_smiles | miR-21 reporter
23 | CCc1ccc(N2CCn3c2nc2c3c(=O)n(Cc3cccc(C)c3)c(=O)n2C)cc1 | -18%
27 | Cn1c(NCCCO)nc2c1c(=O)n(Cc1cccc(F)c1)c(=O)n2C | -7%
22 | Cc1cc2c(cc1S(=O)(=O)Nc1cc(C(F)(F)F)cc(C(F)(F)F)c1)OCC(=O)N2 | -2%

Screens: PubChem, National Center for Advancing Translational Sciences (NCATS)
